In this assay the test system is S. aureus (ARC516, ATCC33591, USA100 NRS382, USA300 NRS384).

Molecules are shown by their SMILES.

The source of these data is publication PMC4501059, “Responding to the challenge of untreatable gonorrhea: ETX0914, a first-in-class agent with a distinct mechanism-of-action against bacterial Type II topoisomerases” (Scientific Reports, 2015).

With `CC(=O)NC[C@H]1CN(c2ccc(N3CCOCC3)c(F)c2)C(=O)O1` [Linezolid], for the setting “S. aureus neutropenic thigh model, Mean ± Standard error of the Mean”, the “PK/PD magnitude (fAUC/MIC) in preclinical model, Measured, Stasis” value is listed as “Stasis: 66 ± 25”.

Consider `C[C@@H]1CN2c3c(cc4c(N5C(=O)OC[C@@H]5C)noc4c3F)CC3(C(=O)NC(=O)NC3=O)[C@H]2[C@H](C)O1` [ETX0914], for which, for the setting “USA300 NRS384, Mean ± Standard error of the Mean”, the “fAUC/MIC, Stasis” value turned out to be 80 ± 5. The “range of fAUC/MIC PK/PD target” value (stasis, four S. aureus isolates, mouse thigh model) is on record as 43–98. Also, the “mean fAUC/MIC PK/PD target” value (stasis, mean of four S. aureus isolates, mouse thigh model) stood at 66.
